Laboratory results taken from patent US20260382588A1, “COMPOUNDS CONTAINING A HYDROXYPHENYL MOIETY AND THEIR USE” (published 2026).

Legend:
[1] = test system: Xbp1 mRNA splicing; assay: Xbp1 mRNA splicing in orthotopic U87-luc tumors in mice; details: i.p. 300 μg/kg daily
Description: Tumor cell orthotopic implantation—Tumor cells (U87-Luc (A. Jabouille, et al., Oncotarget, 2015, 6, 24922-24934)) were implanted into the brain of immunodeficient NMRI-Foxnlnu/Foxn1nu, 8 weeks old male mice (Janvier Laboratories, Laval, France). All animal procedures met the European Community Directive guidelines (Agreement B35-238-40 Biosit Rennes, France/No DIR 13480) and were approved by the local (University of Rennes) ethics committee and ensuring the breeding and the daily monitoring of the animals in the best conditions of wellbeing according to the law and the rule of 3R (Reduce-Refine-Replace). […] After incising the scalp, the stereotaxic coordinates were calculated for injection of tumor cells into a specific point of the brain, and reproducible for all the mice used. […]
Mouse treatments—Four days after tumor cells implantation, compound 28 (Z4P) treatments were started consisting in treatments of 300 μg/kg/day intraperitonially. For the RNA quantification experiment, performed on tumors generated in mice, three mice per group were treated according to the methods above. […]
Quantitative real-time PCR—Total RNA was prepared using TRIzol reagent (Invitrogen, Carlsbad, CA, USA). […] Each sample was extract individually for RNA and performed the quantification of mRNA levels by qPCR for several targets. […]

[2] = test system: U251 cells; assay: Proteome analysis of treated U251 cells
Protocol: Proteomic analyses—Untreated and MKC8866 and compound 33 (Z4)-treated (during 48 hours) parental U251 and RADH87 GB cells as well as DN IRE1 U251 and RADH87 cells were lysed with lysis buffer composed of 20 mM Tris pH 8, 1.5 mM EDTA, 150 mM NaCl, 1% Triton X-100, 0.1% SDS, supplemented with proteases and phosphatases inhibitor cocktails (Roche). Total proteins were precipitated with 80% ice-cold acetone. Washed pellet were then denatured with 8 M urea in Tris-HCl 0.1 mM, reduced with 5 mM TCEP for 30 minutes, and then alkylated with 10 mM iodoacetamide for 30 minutes in the dark. […] Samples were analyzed using an Ultimate 3000 nano-RSLC (Thermo Scientific, San Jose California) coupled in line with a LTQ-Orbitrap ELITE mass spectrometer via a nano-electrospray ionization source (Thermo Scientific, San Jose California). Proteins were identified and quantified by database searching using SequestHT (Thermo Fisher Scientific) with Proteome Discoverer 2.4 software (PD2.4, Thermo Fisher Scientific) against Homo sapiens reviewed SwissProt database. Peptides and proteins were filtered with a false discovery rate (FDR) at 1% and their quantification was based on XIC (Extracted Ion Chromatogram). […]

Compound | splicing of Xbp1 mRNA in tumors ([1]; 34 days (FIG. 5B)) | crossing of the BBB ([1]; implied from tumor Xbp1 mRNA splicing (FIG. 5B)) | pathways impacted in proteome ([2]; 48 hours) | proteome alterations versus cells with genetically blunted IRE1 activity ([2]; comparison with DN and Q780stop)
Cc1ccc(C)c(NC(=O)NC(C)CCc2ccc(O)cc2)c1 (racemic) | decreased the splicing of Xbp1 mRNA | crossed the BBB |  | 
Cc1ccc(C(N)=O)cc1NC(=O)NC(C)CCc1ccc(O)cc1 (racemic) |  |  | impacted on particular pathways such as cell adhesion, circulatory system development, cell locomotion and cell migration | phenocopied those observed in cells in which IRE1 activity was genetically blunted
